In US11091496B2, “Opioid ketal compounds and uses thereof” (priority 2013, dated 2021):

Type: physicochemical

COc1ccc2c3c1OC1C4(CCC5[C@@H](C2)N(C)CC[C@@]351)OC(C)C(C)O4 (stereo partly shown)
Hydrolysis in 0.1 N HCl at 37° C. (hydrolyzed in 20 hours): 14.3% hydrolyzed in 20 hours

COc1ccc2c3c1OC1C4(CCC5(O)[C@@H](C2)N(C)CC[C@]315)OCC(C)O4 (stereo partly shown)
Hydrolysis in 0.1 N HCl at 37° C. (hydrolyzed in four hours): 1% hydrolyzed in four hours

COc1ccc2c3c1OC1C4(CCC5[C@@H](C2)N(C)CC[C@@]351)OCCO4 (stereo partly shown)
Hydrolysis in 0.1 N HCl at 37° C. (hydrolyzed in four hours): 2.5% hydrolyzed in four hours

CN1CC[C@]23c4c5ccc(O)c4OC2C2(CCC3[C@H]1C5)OCCO2 (stereo partly shown)
Hydrolysis in 0.1 N HCl at 37° C. (hydrolyzed in 19 hours): 6.6% hydrolyzed in 19 hours

Where two headings read alike, the source gives them in different places.
